Paper PMC9867944 (Bioscience Reports, 2023)

Biological target: T1, anti-PD-1 Nb C12-Fc (Bactrian camel)
T1 construct: VHH C12 selected from a naive Bactrian camel phage display library; Nb C12 fused to the human IgG1 Fc fragment in plasmid pCZN1; about 40 kDa on SDS-PAGE; also called anti-PD-1 Nb-Fc; PD-1 C12 Nb-Fc
Test: SPR; Biacore 8K; anti-PD-1 Nb-Fc (10 ug/ml) immobilised on CM5 chip to 300 RU; human PD-1 antigen injected from 100 to 0.391 nM; association 120 s, dissociation 300 s
Details: both partners purified

B1: human PD-1 protein (Acro biosystems) (receptor, UniProt Q15116 25-170, looked up)
chain: LDSPDRPWNPPTFSPALLVVTEGDNATFTCSFSNTSESFVLNWYRMSPSNQTDKLAAFPEDRSQPGQDCRFRVTQLPNGRDFHMSVVRARRNDSGTYLCGAISLAPKAQIKESLRAELRVTERRAEVPTAHPSPSPRPAGQFQTLV
notes: programmed death protein 1 (PD-1), human, recombinant protein; probably the extracellular domain; also called human PD-1 antigen; hPD-1; source: bought: Acro biosystems
In the case of B1, the Kd is reported as 6.63 nM.
